Measured affinities in a library of Ab-14 light chain variants

Values reported by Li et al. 2023, doi:10.1038/s41467-023-39022-2 (FLAb copy).

The target is the same throughout: PDVDLGDISGINAS, from the HR2 region of SARS-CoV-2 spike.

Parent scFv Ab-14: VH joined to VL by three GGGGS repeats. Changes lie in the light chain CDRs alone.
VH: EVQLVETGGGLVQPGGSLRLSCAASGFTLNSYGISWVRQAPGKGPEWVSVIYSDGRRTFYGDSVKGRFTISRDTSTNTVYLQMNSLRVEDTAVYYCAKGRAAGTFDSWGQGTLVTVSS
VL: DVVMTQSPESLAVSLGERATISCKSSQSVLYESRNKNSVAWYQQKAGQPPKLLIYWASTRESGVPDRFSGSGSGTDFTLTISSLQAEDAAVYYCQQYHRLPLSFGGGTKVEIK

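Phage display of a naive human antibody library on the peptide gave the parent. These sequences belong to a second round, designed from the earlier measurements on random variants of the parent. Group labels follow the data file (Ctrl: baseline library sampled from a position-specific scoring matrix, with some repeated check sequences; En: ensemble of fine-tuned language models; GP: Gaussian process model; GPLM: also part of the Gaussian process libraries; HC: hill climbing; Gen: genetic algorithm; Gibbs: Gibbs sampling; a sequence that several methods proposed may carry one label only). In AlphaSeq, yeast of one mating type display the scFv and yeast of the other type display the target. The frequency of each diploid, read from paired DNA barcodes, reflects how well the two displayed proteins bind. Scores were corrected for input abundance and mapped to Kd with protein pairs of known affinity run in the same pool. The assay was run in six technical replicates.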

Variants are written as CDR1, CDR2 and CDR3 of the light chain (limits as in the source). Parent: KSSQSVLYESRNKNSVA, WASTRES, QQYHRLPLS.
The read-out is the apparent dissociation constant on a log10 scale (nM): the lower, the stronger.
Replicates are averaged; those with no signal do not enter the mean.
A pair that was not seen in that replicate is written "n.d."; this usually means weak binding, but a binder can also be missed.
A sequence measured in both rounds can read differently, since the two assays cover different ranges.
Three control strains display no target. For all light chain designs, 4% of the pairings with them gave a signal, with a median of 2.64 and one signal in twenty below 1.59, so weak values seen in few replicates may be background.
The authors averaged sequences with at least three values out of six and counted those with two or fewer as poor binders.

replicates, log10 nM	mean, log10 nM	CDR-L1	CDR-L2	CDR-L3	group
n.d. 2.05 n.d. n.d. n.d. n.d.	2.05	KLSNSVWMESRNKNNVA	HASKRES	QQYHRLPLS	GP_Gibbs
-0.14 -0.02 -0.32 -0.39 -0.02 -0.03	-0.15	KVSQQDLYESRNKNSVA	EASTRES	QQYHRLPLS	GP_Gen
n.d. n.d. n.d. n.d. n.d. n.d.	n.d.	KSSQSVLYESRNKNSVA	WASFRVS	QQYHRLPLS	Ctrl
0.40 -0.20 0.51 -0.10 0.14 0.48	0.21	KLSGSMLYEQRMKNSVA	QASVRMS	QQYHRLPLS	GP_Gibbs
0.18 0.56 0.30 0.38 0.23 0.49	0.36	HSSPSYYYDSRNKNHVA	DATTRES	QQYHRLPLT	En_Gibbs
n.d. n.d. n.d. n.d. 1.84 n.d.	1.84	KSSQPVLYESRNKNSVA	KASTRED	QQYHRLPLT	Ctrl
0.41 0.37 0.69 0.52 0.62 0.88	0.58	KLLQVTENMSLNRNSVA	HMSTRED	QQYHHLPLS	En_HC
-0.16 -0.22 -0.34 -0.28 -0.34 0.00	-0.22	KMSQSVLMEDRNKNSVA	DASLRES	QQYHRLPLS	GP_HC
1.24 1.04 0.75 0.96 0.99 1.32	1.05	IIDQIMYHGNKRANSIA	QASERVN	QQYHHLPLT	En_Gen
2.37 2.57 2.56 2.83 n.d. 3.00	2.67	IIYESVGTLSRNKNSVA	DNSTRES	QQYDRLPLS	En_HC
1.07 1.34 1.15 1.02 0.74 0.97	1.05	YSSQSVLKESRTKNSVA	SASTRES	QQYHRLPLS	Ctrl
1.19 0.93 1.30 0.91 0.76 0.87	0.99	NITQQGDAMGDQRNNVA	NGETLEH	QQYAHLPLL	En_Gibbs
-0.10 -0.42 -0.41 -0.35 -0.56 -0.27	-0.35	KLSQSMLYESRNKNSVA	NGSTRES	QQYHRLPLS	GP_Gen
0.26 0.12 0.36 0.25 0.37 0.40	0.30	SLMQSVLLESRNKNSVA	HASLRED	QQYHRLPLS	GP_HC
0.47 0.22 0.31 0.10 0.18 0.38	0.28	QLDLRMNEQGMQPSAIA	GATNRFT	QQYQKLPLS	En_Gibbs
0.65 0.26 0.52 0.98 0.72 0.57	0.61	KLSQSHWGESRNKNSVA	HASLREV	QQYHRLPLS	GP_Gibbs
0.26 0.34 0.28 0.21 0.34 0.41	0.31	KFSQSVLYESRNKNSVA	NASTRCS	QQYHRLPLS	GP_Gen
-0.06 0.00 -0.23 0.02 0.02 0.14	-0.02	KLMQLGHYESRNANNVA	NASTREQ	QQYHRLPLS	GP_Gibbs
-0.24 -0.29 -0.53 -0.22 -0.51 -0.26	-0.34	KLEMSQPYESRNKNSVA	HASVRES	QQYHRLPLS	GP_Gibbs
0.63 0.39 0.35 0.23 0.26 0.76	0.44	KSSQSVLYESGNKNSVA	HASTRMD	QQYHRLPLS	GP_HC
0.42 0.59 0.25 0.53 0.48 0.76	0.50	KVLQEMLYESRMANSVA	NASQRES	QQYHRLPLS	GP_Gibbs
1.67 1.41 1.75 1.78 1.39 2.78	1.80	KLSQQWLMESRNKNSVA	NASLRLS	QCYHRLPLS	GP_Gibbs
-0.22 -0.43 -0.44 -0.48 -0.53 -0.08	-0.36	KVSQSMLYESRNKNNVA	EASTRES	QQYHRLPLS	GP_Gen
n.d. 3.31 2.53 3.05 2.07 2.82	2.76	KLSMSMLLESFHKNSVA	ENSTREE	QHYHRLPLS	En_HC
n.d. 1.70 1.61 n.d. 1.63 n.d.	1.65	MISQLYNMGTFAINSVA	QAEIRNE	QQYDRLPLI	En_Gen
n.d. n.d. n.d. n.d. n.d. n.d.	n.d.	KSSQSDLYESRNKNSVA	WASTRES	QQYHRLPGS	Ctrl
n.d. n.d. n.d. n.d. n.d. n.d.	n.d.	IISELYNQAAGMRNNVA	NNQTRED	QQYDRLPLS	En_Gen
0.07 0.08 -0.07 -0.30 -0.22 -0.14	-0.10	KIQQSVLYESRNKNSVA	NASTRCS	QQYHRLPLS	GP_Gen
0.44 0.28 0.33 0.18 0.38 0.40	0.33	KSGQGVLYESRNKASVA	GASTRES	QQYHRLPLS	GPLM_HC
2.37 3.46 2.79 1.15 2.44 1.39	2.26	MLSQMTGLGMKAKNSVA	QANMRFD	QQYHRLPLI	En_Gen
n.d. 1.88 1.54 2.77 2.25 2.20	2.13	KLSQSVCYEQRQKNSVA	NASTRMS	QQYHRLKLS	GP_Gibbs
2.07 2.36 2.46 1.65 2.43 n.d.	2.19	HIGLATMLEEYVRNSVA	NNSTREK	QQYDRLPLS	En_Gen
1.63 1.83 2.03 0.89 2.46 2.50	1.89	KISQSVLYESANKNFVA	WASTRES	QQYHKLPLS	Ctrl

4 of these entries, quoted again:

CDR-L1	CDR-L2	CDR-L3	group	replicates, log10 nM	mean, log10 nM
IIYESVGTLSRNKNSVA	DNSTRES	QQYDRLPLS	En_HC	2.37 2.57 2.56 2.83 n.d. 3.00	2.67
KLSQSMLYESRNKNSVA	NGSTRES	QQYHRLPLS	GP_Gen	-0.10 -0.42 -0.41 -0.35 -0.56 -0.27	-0.35
NITQQGDAMGDQRNNVA	NGETLEH	QQYAHLPLL	En_Gibbs	1.19 0.93 1.30 0.91 0.76 0.87	0.99
MLSQMTGLGMKAKNSVA	QANMRFD	QQYHRLPLI	En_Gen	2.37 3.46 2.79 1.15 2.44 1.39	2.26